Experimental data reported in publication PMC2811000.

Amino acid sequences for entries named in this document (tags omitted).
UniProt P18887, whole entry: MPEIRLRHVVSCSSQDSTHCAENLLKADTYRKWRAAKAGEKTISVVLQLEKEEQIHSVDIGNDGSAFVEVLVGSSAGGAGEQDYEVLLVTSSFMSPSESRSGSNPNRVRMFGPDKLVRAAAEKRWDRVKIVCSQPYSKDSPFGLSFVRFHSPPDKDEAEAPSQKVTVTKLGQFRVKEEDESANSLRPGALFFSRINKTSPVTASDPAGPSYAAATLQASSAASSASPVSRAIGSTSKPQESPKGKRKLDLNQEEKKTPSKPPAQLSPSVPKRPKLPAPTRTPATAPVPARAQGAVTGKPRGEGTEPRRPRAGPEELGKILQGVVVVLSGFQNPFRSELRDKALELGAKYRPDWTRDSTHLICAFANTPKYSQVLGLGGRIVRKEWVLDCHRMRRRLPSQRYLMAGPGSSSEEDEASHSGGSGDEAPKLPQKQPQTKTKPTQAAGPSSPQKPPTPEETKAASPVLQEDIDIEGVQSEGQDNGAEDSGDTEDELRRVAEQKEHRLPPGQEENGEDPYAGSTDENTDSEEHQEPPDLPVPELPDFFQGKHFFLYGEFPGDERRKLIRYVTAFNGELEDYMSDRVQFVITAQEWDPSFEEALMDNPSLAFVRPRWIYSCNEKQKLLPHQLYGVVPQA

Target: acrylodan-labeled C-terminal catalytic kinase/phosphatase domain of PNKP (human)
Assay: other fluorescence titration

- stoichiometry N: 1.1
Substance: non-phosphorylated XRCC1 (from UniProt P18887 1-633) (natural protein)
